scFv variants of Ab-14 (light chain) against a SARS-CoV-2 spike peptide

Target peptide (SARS-CoV-2 spike, HR2 region): PDVDLGDISGINAS

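The parent was found by panning a naive human phage display library on the peptide. The variants were designed computationally from a first round of random CDR variants and then made and measured. Their group label is 14L_Ctrl (Ctrl: baseline library sampled from a position-specific scoring matrix, with some repeated check sequences). Affinity was read by AlphaSeq, a pooled yeast mating assay with surface-displayed partners. The frequency of each diploid, read from paired DNA barcodes, reflects how well the two displayed proteins bind. Read counts were normalised to the haploid input and turned into Kd by a linear fit to BCL2-family pairs of known affinity, for each replicate. The assay was run in six technical replicates.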

Each scFv is VH, the linker GGGGSGGGGSGGGGS, VL, as in the parent Ab-14, and differs from it in the CDRs of the light chain only.
VH: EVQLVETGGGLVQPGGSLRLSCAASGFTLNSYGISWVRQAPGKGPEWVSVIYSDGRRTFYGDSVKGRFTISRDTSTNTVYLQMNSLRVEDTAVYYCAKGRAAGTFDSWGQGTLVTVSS
VL: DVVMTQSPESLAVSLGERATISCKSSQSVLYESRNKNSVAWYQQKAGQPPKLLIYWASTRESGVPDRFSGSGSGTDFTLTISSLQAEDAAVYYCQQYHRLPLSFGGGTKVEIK

The parent's light chain CDRs are KSSQSVLYESRNKNSVA, WASTRES, QQYHRLPLS; each variant's own CDRs replace them letter for letter. Values are log10 of the apparent Kd in nM; lower means stronger binding. Replicates are averaged; those with no signal do not enter the mean. "n.d." marks a missing value. The strain was present, yet no cells mated with the target were sequenced in that replicate, which points to weak or no binding. Empty control strains, which show no peptide, gave a signal in 4% of pairings with all light chain designs; the median was 2.64 and 95% of these signals were weaker than 1.59. No background was subtracted. Also given: how often the same scFv was detected with the empty control strains, with their mean in brackets. The range of this assay differs from that of the first round, and the authors advise against merging the two. In the paper, a design with two or fewer of six values counts as a poor binder. Of ten entries with the parent sequence, four were seen in most replicates (averages 0.34 to 2.37), three in one and three in none, so single entries are noisy.

CDR-L1 | CDR-L2 | CDR-L3 | log10 Kd (nM) by replicate | log10 Kd (nM), mean | empty controls
KSSQSVMEESRNKNSVA | WASTRES | QQGHRLPLT | 1.99 / 1.41 / 2.02 / n.d. / n.d. / n.d. | 1.80 | 0 of 18
KISQSVLYESRNKNSVA | WAHTRES | QQYHRLPLS | 1.16 / 0.62 / 0.99 / 1.47 / 1.14 / 1.29 | 1.11 | 0 of 18
KSSQHVYNESRNKNSVA | WASTRES | QQYHRLPLS | 1.77 / 2.29 / 1.39 / 1.96 / 2.67 / 3.41 | 2.25 | 2 of 18 (2.51)
KSSQSVLMESLNKNSVA | AAMTRVS | QQYHRLPLS | 0.71 / 0.79 / 0.87 / 0.44 / 0.91 / 0.64 | 0.73 | 0 of 18
KSSQNVLGDSRNKNSVA | WASTRFS | QQYHRLPLS | 1.44 / 1.41 / 1.25 / 1.34 / 3.23 / 1.98 | 1.77 | 1 of 18 (3.04)
KSSQSVVGESRNKNSVA | GASTRES | QQYHRLPLS | 0.48 / 0.60 / 0.74 / 0.35 / 0.92 / 0.75 | 0.64 | 2 of 18 (3.12)
KSSQSVLYESRCKNSVA | WATTRES | QQYHRLNLS | n.d. / n.d. / n.d. / n.d. / n.d. / n.d. | n.d. | 0 of 18
KSKQSVLYESRNFNSVA | NASTRES | QDYHRLPFS | 0.44 / 0.21 / 0.14 / 0.13 / 0.14 / 0.41 | 0.25 | 1 of 18 (2.94)
KSQQSVLYESTNKNSVA | WASTPES | QQYHRLPLS | n.d. / n.d. / n.d. / n.d. / n.d. / n.d. | n.d. | 0 of 18
KSDQSVLKEWRNKNSVA | WASARVS | QQYHRLPLS | n.d. / n.d. / n.d. / n.d. / n.d. / n.d. | n.d. | 0 of 18
KSFQSVLYESRNKNSVA | WASTRES | QQYHRLPLS | 1.69 / n.d. / n.d. / n.d. / n.d. / n.d. | 1.69 | 0 of 18
KSSQSKLYESRNKNSVA | WASTRES | QQYHRLPLS | 2.46 / 2.53 / 2.09 / 2.74 / 1.94 / 3.03 | 2.46 | 0 of 18
KSYQSVLYESVMPNSVA | WASTRSS | GQYHRLPLS | n.d. / n.d. / n.d. / n.d. / n.d. / n.d. | n.d. | 1 of 18 (-0.68)
KSSQSCLYESKNKNSVA | SASTRES | QQYHRLPLS | 0.18 / 0.17 / -0.12 / -0.16 / -0.22 / -0.14 | -0.05 | 0 of 18
KSYQSLLYESRPKNSVA | WASTRES | QQYHRLPLS | n.d. / n.d. / n.d. / n.d. / 2.64 / 1.98 | 2.31 | 0 of 18
RSSQSVLYESRNKNSVA | NASTRES | QQYHRLPLS | 0.62 / 0.49 / 0.59 / 0.26 / 0.52 / 0.64 | 0.52 | 3 of 18 (2.80)
FSSQSVLYESRNKNSVA | WASTRES | QQYHRLPLS | 2.51 / n.d. / n.d. / n.d. / 3.63 / 2.51 | 2.88 | 0 of 18
KSSQSVLYDSRNKNSVA | WASTRES | QQYHRLPLS | n.d. / n.d. / 1.85 / n.d. / 3.98 / n.d. | 2.92 | 0 of 18
KSSQSVAYESRNKNSVA | WASTRES | QQYHRLPLS | 0.14 / 0.94 / 1.15 / 0.93 / 1.20 / 1.88 | 1.04 | 1 of 18 (0.84)
KSSQSPDNEERNKNSVA | WASTRES | QQYHRLPLS | n.d. / 1.58 / n.d. / n.d. / n.d. / n.d. | 1.58 | 0 of 18
KSSQSVLYESRNKNSVA | GASTRES | YQYHRLPLS | n.d. / n.d. / n.d. / n.d. / n.d. / n.d. | n.d. | 0 of 18
KFSQSTGAESNLKNSVA | WASTRES | QQYHRLPLS | 0.95 / 0.96 / 0.91 / 0.84 / 0.96 / 0.48 | 0.85 | 0 of 18
KSTQSVLTESRNHSSVA | WASTREY | QQYHDLGLS | 2.44 / n.d. / n.d. / n.d. / n.d. / n.d. | 2.44 | 2 of 18 (1.81)
KLSQSVLYESRNKNSVA | WASTRFS | QQYHSLHLS | n.d. / n.d. / n.d. / n.d. / n.d. / n.d. | n.d. | 0 of 18
KLAQSGLYESRNKNSVA | KASTRES | QSYHRLPLD | 0.86 / 0.55 / 0.81 / 0.64 / 1.23 / 1.20 | 0.88 | 1 of 18 (2.62)
KSSLSVLYGSHCKNSVA | KASTREE | QQYHQLPLS | n.d. / n.d. / n.d. / n.d. / n.d. / n.d. | n.d. | 0 of 18
KSSQSVLYESRNKNSVA | WASTRES | QQYHRLGLS | n.d. / n.d. / n.d. / 1.82 / n.d. / n.d. | 1.82 | 0 of 18
KSSQSVLYESRNKNSVA | QASWRES | QQDHRLPLS | n.d. / n.d. / n.d. / n.d. / n.d. / n.d. | n.d. | 0 of 18
KSSQSVLYESRNKNSVA | WASCRES | QQYHRLPLS | n.d. / n.d. / n.d. / n.d. / n.d. / n.d. | n.d. | 0 of 18
KSSQSVLVESNNKNSVA | WASTRES | QQYHRLPLS | n.d. / 1.89 / 2.78 / 1.90 / 2.48 / 1.68 | 2.15 | 0 of 18
KFSQSVLYESRNMNSVA | LASTREE | QQYHRLPLD | 2.22 / 1.60 / 1.65 / 2.24 / 1.76 / 1.77 | 1.87 | 1 of 18 (2.64)
KSSQEVLYESRNKNSVA | WASTRES | QQYHRLPNS | n.d. / n.d. / n.d. / n.d. / n.d. / n.d. | n.d. | 0 of 18
KSSQSVAYEGRNKNSVA | WASTRES | QQYHHLPLS | 1.13 / 1.00 / 0.81 / 0.78 / 1.30 / 0.54 | 0.93 | 0 of 18
KTSQSVLYESRNKNSVA | YASTRES | QQKHRLPLS | n.d. / n.d. / n.d. / n.d. / n.d. / n.d. | n.d. | 0 of 18
KMSQSVLEESRDKNSVA | QASTRES | QQYHRLLLS | 0.03 / 0.05 / 0.17 / 0.02 / 0.01 / 0.15 | 0.07 | 2 of 18 (2.73)
KSSQSNLEESRNHNSVA | WASTRES | QQYHRLPLS | n.d. / n.d. / n.d. / 2.18 / 1.99 / 1.37 | 1.85 | 0 of 18
KSSSSVLYESRPKNSVA | MASTRES | QQYHRLPLS | 2.12 / 2.35 / n.d. / 1.78 / 1.39 / 2.05 | 1.94 | 0 of 18
KSSQSVLYESRNKNPVA | WASTRVS | QQYHRLPLS | n.d. / 2.71 / n.d. / n.d. / 1.63 / 3.23 | 2.52 | 1 of 18 (2.91)
KSSQSVLYEGRNKNSVA | WASTRES | QQYHRLPLS | 1.32 / 2.09 / 1.39 / 2.39 / 2.31 / 2.17 | 1.95 | 2 of 18 (2.81)
KFSQSVLYESRNKNSVA | WASTRES | QQYHRLPFS | 0.75 / 0.73 / 0.52 / 0.55 / 0.98 / 0.81 | 0.72 | 1 of 18 (2.32)
KSNQSVCYESRNKNWIA | WASTREA | QQHHRAPLS | n.d. / n.d. / n.d. / n.d. / n.d. / 2.30 | 2.30 | 1 of 18 (1.71)

The closing 2 entries, repeated:

CDR-L1,CDR-L2,CDR-L3,log10 Kd (nM) by replicate,"log10 Kd (nM), mean",empty controls
KFSQSVLYESRNKNSVA,WASTRES,QQYHRLPFS,0.75 / 0.73 / 0.52 / 0.55 / 0.98 / 0.81,0.72,1 of 18 (2.32)
KSNQSVCYESRNKNWIA,WASTREA,QQHHRAPLS,n.d. / n.d. / n.d. / n.d. / n.d. / 2.30,2.30,1 of 18 (1.71)

Values reported by Li et al. 2023, doi:10.1038/s41467-023-39022-2 (FLAb copy).